Measured values taken from article PMC3046295 (Journal of autoimmunity, 2011).

Columns and labels:
DR0401 = DR0401 (Homo sapiens, UniProt P01903+P01911, A100K/A169T/F76Y/I96L/K127E/L162R/M171V/N62H/P40V/Q125Y/R42H/S133A/S149N/S66Y/V115G/V209L/W38E); test: 16-hour direct binding assay of biotinylated reference peptide, DR0401
DR0403 = DR0403 (Homo sapiens, UniProt P01903+P01911, A100R/A103E/A169T/F76Y/I96L/K127E/L162R/M171V/N62H/P40V/Q125Y/R42H/S133A/S149N/S66Y/V209L/W38E); test: 16-hour direct binding assay of biotinylated reference peptide, DR0403

PKYVKQNTLKLAT [HA306]
ED50 to bind 0.05 µM DR0401 (DR0401): 0.035 µM
ED50 to bind 0.05 µM DR0403 (DR0403): > 15 µM
